Here are results for 1 compound from paper PMC4389443 (Respiratory Research, 2015).

The chains behind the UniProt entries cited, without tags or fusion partners. Residues count along the entry.
UniProt P19801, 20-751: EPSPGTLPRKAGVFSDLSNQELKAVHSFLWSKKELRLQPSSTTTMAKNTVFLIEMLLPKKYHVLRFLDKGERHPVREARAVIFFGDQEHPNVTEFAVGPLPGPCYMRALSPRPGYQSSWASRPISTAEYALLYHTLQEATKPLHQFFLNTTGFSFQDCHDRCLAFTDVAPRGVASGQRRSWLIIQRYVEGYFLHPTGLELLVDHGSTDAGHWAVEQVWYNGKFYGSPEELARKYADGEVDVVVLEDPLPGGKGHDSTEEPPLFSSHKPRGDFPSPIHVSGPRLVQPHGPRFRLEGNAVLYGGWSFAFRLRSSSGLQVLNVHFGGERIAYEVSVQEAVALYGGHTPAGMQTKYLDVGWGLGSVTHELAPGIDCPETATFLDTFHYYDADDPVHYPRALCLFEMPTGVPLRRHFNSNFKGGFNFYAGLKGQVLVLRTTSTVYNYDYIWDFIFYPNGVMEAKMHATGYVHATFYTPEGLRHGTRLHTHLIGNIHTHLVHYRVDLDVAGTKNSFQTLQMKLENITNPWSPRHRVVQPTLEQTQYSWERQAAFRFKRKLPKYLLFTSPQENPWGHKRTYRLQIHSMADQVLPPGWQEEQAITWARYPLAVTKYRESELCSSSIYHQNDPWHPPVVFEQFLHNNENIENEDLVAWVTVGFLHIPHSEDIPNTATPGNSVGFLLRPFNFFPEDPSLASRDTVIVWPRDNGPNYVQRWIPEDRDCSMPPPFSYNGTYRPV

What is called IC50 is the concentration that inhibits the measured activity by half.

Molecules are shown by their SMILES.

The experiment has as its target Recombinant diamine oxidase (AOC1) (Homo sapiens, UniProt P19801). The experiment is described as follows: biochemical.

For the compound `CC(C)(C)NC(=O)c1ccc(OC/C(=C/F)CN)cc1` [PXS-4728A], the IC50 is 12 µM.
